Experimental data from patent publication US20210253511A1, “COMPOUNDS AND USES FOR THE TREATMENT AND PREVENTION OF DISEASES AND CONDITIONS ASSOCIATE WITH OR AGGREVATED BY IMPARED MITOPHAGY” (Yissum Research Development Company of The Hebrew …, priority 2018, published 2021).

Test system: C. elegans
Conditions: 0.25 and 4 mM; no PQ

NCCCCCCCCCCCCN [1,12-Diaminododecane]
viability of worms not exposed to PQ: did not change the viability
